Test results: BindingDB's records for doi:10.1016/s0960-894x(02)00585-1 (Corvas International, 2002)

Molecular target: Prothrombin (Homo sapiens, UniProt P00734)
Experiment: In vitro inhibitory activity against human Thrombin (FIIa) cleavage of the chromogenic substrate

**Q.** Which Ki does the source give for COc1cccc(S(=O)(=O)Nc2cccn(CC(=O)NCc3ccc4c(N)[nH]nc4c3)c2=O)c1 here?
**A.** 3570 nM

**Q.** How did the Ki turn out when Cc1cnc(NCCc2ccccc2)c(=O)n1CC(=O)NCc1ccc2cn[nH]c2c1 was run?
**A.** 1590 nM
